We go through 22 compounds from ChEMBL document CHEMBL5331147.

The chains behind the UniProt entries cited, without tags or fusion partners. Where a name states a change or a piece, a line headed by the entry shows the natural chain unless it says otherwise.
UniProt P28223, whole entry: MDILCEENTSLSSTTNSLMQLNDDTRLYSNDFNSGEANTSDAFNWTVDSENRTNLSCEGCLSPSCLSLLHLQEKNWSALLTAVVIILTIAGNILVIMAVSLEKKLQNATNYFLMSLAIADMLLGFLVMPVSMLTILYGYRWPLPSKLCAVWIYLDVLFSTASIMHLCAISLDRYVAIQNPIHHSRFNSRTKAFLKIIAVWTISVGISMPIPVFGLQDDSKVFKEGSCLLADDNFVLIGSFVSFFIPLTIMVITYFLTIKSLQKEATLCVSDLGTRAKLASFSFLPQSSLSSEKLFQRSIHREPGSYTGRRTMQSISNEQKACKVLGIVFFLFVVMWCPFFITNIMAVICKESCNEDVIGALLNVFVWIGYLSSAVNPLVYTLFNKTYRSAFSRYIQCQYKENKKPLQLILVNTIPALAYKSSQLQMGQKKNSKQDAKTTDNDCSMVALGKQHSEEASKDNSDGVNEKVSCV
UniProt P28335: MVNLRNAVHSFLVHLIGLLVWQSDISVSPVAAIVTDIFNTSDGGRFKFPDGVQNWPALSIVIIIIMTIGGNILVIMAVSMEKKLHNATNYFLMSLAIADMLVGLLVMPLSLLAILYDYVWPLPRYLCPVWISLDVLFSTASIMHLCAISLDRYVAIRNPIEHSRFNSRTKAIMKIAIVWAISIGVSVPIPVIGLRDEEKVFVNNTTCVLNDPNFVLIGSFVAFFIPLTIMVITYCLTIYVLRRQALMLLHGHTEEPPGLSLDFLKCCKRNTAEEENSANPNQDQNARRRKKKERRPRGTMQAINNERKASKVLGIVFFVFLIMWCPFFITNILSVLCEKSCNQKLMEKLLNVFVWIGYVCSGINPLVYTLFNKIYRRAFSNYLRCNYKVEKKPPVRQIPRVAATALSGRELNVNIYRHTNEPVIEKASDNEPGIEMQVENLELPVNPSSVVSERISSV
UniProt P41595, whole entry: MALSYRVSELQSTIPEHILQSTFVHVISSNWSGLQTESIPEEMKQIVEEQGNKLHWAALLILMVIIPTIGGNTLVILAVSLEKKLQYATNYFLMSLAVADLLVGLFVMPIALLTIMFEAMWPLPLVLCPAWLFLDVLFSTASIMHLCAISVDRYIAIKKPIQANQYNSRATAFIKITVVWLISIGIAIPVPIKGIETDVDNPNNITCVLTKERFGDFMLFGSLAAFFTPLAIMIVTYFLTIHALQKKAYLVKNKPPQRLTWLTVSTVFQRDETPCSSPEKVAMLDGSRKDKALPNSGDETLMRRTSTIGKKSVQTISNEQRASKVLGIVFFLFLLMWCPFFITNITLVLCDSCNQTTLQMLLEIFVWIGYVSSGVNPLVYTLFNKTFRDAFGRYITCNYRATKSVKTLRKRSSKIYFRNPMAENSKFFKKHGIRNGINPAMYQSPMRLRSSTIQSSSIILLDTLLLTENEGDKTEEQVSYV

Assay [1] addresses 5-hydroxytryptamine receptor 2A (Homo sapiens) (UniProt P28223). As to conditions: CHO, filed as positive allosteric modulator, dose 1.0 nM, time 15.0 min.
Assay [2] concerns the target 5-hydroxytryptamine receptor 2C (Homo sapiens) (UniProt P28335). As to conditions: CHO, dose 1.0 nM, time 15.0 min.
The target of assay [3] is 5-hydroxytryptamine receptor 2B (Homo sapiens) (UniProt P41595). As to conditions: CHO, filed as positive allosteric modulator, dose 1.0 nM, time 15.0 min.
[4] abbreviates: filed as positive allosteric modulator.

Usually Emax stands for the maximal effect, on the per cent scale that the assay sets. Consider `CCCCCCCC/C=C\CCCCCCCC(=O)N[C@H](CO)[C@H](O)c1ccccc1`, for which the Emax was determined as 98.8% in assay [1], 126% in assay [2] (setting [4]) and 92.4% in assay [3].

With `CCCCCCCC/C=C\CCCCCCCC(=O)N[C@@H](Cc1ccc(O)cc1)C(=O)O`, in assay [2] (setting [4]), the Emax came to 107%.

`CCCCCCCC/C=C\CCCCCCCC(=O)N[C@@H](Cc1ccc(O)cc1)C(=O)OC`: the Emax in assay [2] (setting [4]) came out at 128%.

In turn, `CCCCCCCC/C=C\CCCCCCCC(=O)NCCc1ccc(O)c(O)c1` came in with an Emax in assay [2] (setting [4]) of 121%.

For `CCCCCCCC/C=C\CCCCCCCC(=O)NCCOCCO`, the maximum response (Emax) in assay [1] is 99.6%; in assay [2] (setting [4]), 106%.

On to `CCCCCCCC/C=C\CCCCCCCC(=O)N[C@H](C(=O)O)[C@H](C)O`, for which the Emax in assay [2] (setting [4]) turned out to be 112%.

Take `CCCCCCCC/C=C\CCCCCCCC(=O)N[C@@H](Cc1c[nH]c2ccccc12)C(=O)O`: the Emax in assay [2] (setting [4]) was found to be 117%.

With `CCCCCCCC/C=C\CCCCCCCC(=O)NCC1CCN(C(=O)OC(C)(C)C)CC1`, in assay [2] (filed as negative allosteric modulator), the Emax was found to be 92.9%.

The compound `CCCCCCCC/C=C\CCCCCCCC(=O)NCCCCNC(=O)OC(C)(C)C` returned a maximal response (Emax) in assay [2] (setting [4]) of 118%.

`CCCCCCCC/C=C\CCCCCCCC(=O)NCC(OCC)OCC` had a maximal effect (Emax) in assay [2] (setting [4]) of 111%.

For `CCCCCCCC/C=C\CCCCCCCC(=O)NC[C@H](O)CO`, the maximal effect (Emax) in assay [2] (setting [4]) came to 100%.

As to `CCCCCCCC/C=C\CCCCCCCC(=O)N[C@@H](Cc1c[nH]c2ccccc12)C(=O)OC`, the Emax in assay [1] was 106%; in assay [2] (setting [4]) it was 125%.

With `CCCCCCCC/C=C\CCCCCCCC(=O)N[C@H](C(=O)OC)[C@H](C)O`, the maximum response (Emax) in assay [1] was 109%; in assay [2] (setting [4]), 110%.

`CCCCCCCC/C=C\CCCCCCCC(=O)N[C@@H](CO)C(=O)OC` came in with an Emax in assay [2] (setting [4]) of 127%.

`CCCCCCCC/C=C\CCCCCCCC(=O)NCCCO`: the maximal effect (Emax) in assay [1] amounted to 99.2%; in assay [2] (setting [4]), 126%; in assay [3], 95.6%.

With `CCCCCCCC/C=C\CCCCCCCC(=O)N[C@@H](CO)C(=O)O`, the Emax in assay [2] (setting [4]) was 118%.

For the compound `CCCCCCCC/C=C\CCCCCCCC(=O)NCc1ccc(O)cc1`, the maximal response (Emax) in assay [2] (setting [4]) was determined as 112%.

`CCCCCCCC/C=C\CCCCCCCC(=O)NCCN1CCOCC1`: the Emax stood at 106% in assay [1] and 121% in assay [2] (setting [4]).

For the compound `CCCCCCCC/C=C\CCCCCCCC(=O)NCc1ccc(O)c(O)c1`, the maximal response (Emax) in assay [1] was found to be 102%; in assay [2] (setting [4]) it was 123%; in assay [3], 101%.

Consider `CCCCCCCC/C=C\CCCCCCCC(=O)NCC(O)CO` (centres undefined), for which, in assay [2] (setting [4]), the maximum response (Emax) stood at 108%.

Take `CCCCCCCC/C=C\CCCCCCCC(=O)NCCc1ccc(O)cc1`: in assay [2] (setting [4]), the Emax was determined as 116%.

For the compound `CCCCCCCC/C=C\CCCCCCCC(=O)NC(CO)CO`, the Emax in assay [1] turned out to be 119%; in assay [2] (setting [4]), 144%; in assay [3] it was 97.2%.
